# According to patent publication US20050171139A1, “Treating psychotic symptoms” (priority 2003, published 2005):
# Legend:
# [1] = system: Male Sprague-Dawley rats; conditions: rat, in vivo
# [2] = system: Male Sprague-Dawley rats; conditions: rat, in vivo; remark: listed apart in the source
# [3] = system: Male Sprague-Dawley rats; conditions: rat, in vivo; remark: listed apart in the source
# [4] = system: Male Sprague-Dawley rats; conditions: rat, in vivo; remark: listed apart in the source
# [5] = system: G proteins coupled to the D2-like receptor; conditions: rat, in vivo
# [6] = system: Gsα; conditions: rat, in vivo
# [7] = system: cAMP-dependent protein kinase A (PKA); conditions: in vivo
# [8] = system: cAMP response element-binding protein (CREB); conditions: in vivo
compound,measurement,setting,value
CCCN1CCC[C@@H]2Cc3n[nH]cc3C[C@H]21 [quinpirole],effect of acute treatment on PPI,[1],significantly reduced PPI
same,change of PPI upon repeated treatment,[1]; 0.1 mg/kg,increased slightly
same,effect of repeated treatment on PPI disruption,[1]; 0.3 mg/kg,did not affect PPI disruption
same,effect on mean startle response,[2],significantly reduced
same,effect on mean startle responses to pulse trials,[2],Neither acute nor repeated quinpirole treatment altered mean startle responses
same,effect on PPI on day 1,[3],significant PPI disruption
same,effect on mean startle responses to pulse trials,[4],Neither acute nor 28 days of repeated quinpirole treatment affected mean startle responses
same,effect on dopamine-stimulated [35S]GTPγS binding,[5],has no effect
same,effect on NAc Gsα protein levels,[6],nor were treatment effects detected
same,PKA activity in the nucleus accumbens (NAc),[7],effectively stimulated
same,phosphorylation of CREB in the nucleus accumbens,[8],increased phosphorylation

# Where two headings read alike, the source gives them in different places.
